Antibody variant affinities, Ab-95 light chain, assay 2

Antigen: PDVDLGDISGINAS, a 14-residue peptide of the SARS-CoV-2 spike HR2 region.

Parent scFv Ab-95: VH joined to VL by the linker GGGGSGGGGSGGGGS. Changes lie in the light chain CDRs alone.
VH: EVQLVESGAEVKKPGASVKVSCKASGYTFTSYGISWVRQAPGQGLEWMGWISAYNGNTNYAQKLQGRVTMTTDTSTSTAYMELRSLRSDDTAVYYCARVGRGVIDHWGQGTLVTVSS
VL: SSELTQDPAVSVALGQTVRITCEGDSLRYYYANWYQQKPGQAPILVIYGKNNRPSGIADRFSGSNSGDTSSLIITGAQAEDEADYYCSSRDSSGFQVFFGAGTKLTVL

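The parent was found by panning a naive human phage display library on the peptide. Library AAYL52 holds single substitutions and randomly drawn double and triple substitutions in the CDRs. The assay is AlphaSeq: two haploid yeast populations carry antibody and antigen on their surface. The frequency of each diploid, read from paired DNA barcodes, reflects how well the two displayed proteins bind. Scores were corrected for input abundance and mapped to Kd with protein pairs of known affinity run in the same pool. The assay was run in three technical replicates.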

Each variant is given by its three light chain CDRs, as the data file delimits them; those of the parent are EGDSLRYYYAN, GKNNRPS, SSRDSSGFQVF.
All variants listed here change V97 of the VL, counted from its first residue.
Scale: log10 of Kd in nM, estimated from mating counts; low values are strong binders.
The mean shown is taken over the replicates in which the pair was detected.
Where no diploid with the target was found in that replicate, the entry reads "ND": below detection, most likely a poor binder, though not proof of it.
For reference, the parent read 2.31 as the reference entry and 2.25 as a member of this library.
Nonspecific signal, from three strains lacking the peptide, appeared in 28% of pairings of library AAYL52, centred on 3.91 (5% of these signals below 2.90); values are not corrected for it.

| CDR-L1 | CDR-L2 | CDR-L3 | log10 Kd, replicates | log10 Kd (nM), mean |
|---|---|---|---|---|
| EGDNLRYYYAN | GKNNRPS | SSRSSSGFQPF | 3.74 ND 3.58 | 3.66 |
| EGDSCRYYYAN | GKNRRPS | SSRDSSGFQWF | ND ND ND | ND |
| EGDSLRDYYAN | GKNNRPS | SSRISSGFQRF | 4.02 ND 3.39 | 3.71 |
| EGDSLRYYYAN | GKNNRGS | SSRYSSGFQHF | 1.97 1.42 1.25 | 1.54 |
| EGDSLRYYYAN | GKNNRPS | SSRDSSGFQSF | 1.99 2.26 3.00 | 2.42 |
| EGDSLRYYHAN | GKNNRPS | SSMDSSGFQAF | 3.30 3.25 2.49 | 3.01 |
| TGDSLRYYYAN | GKNNRPS | SSRDSSGFQGF | ND ND 2.79 | 2.79 |
| EGDKLRYYYAN | GKNNRPS | SSRDSSGFQGF | ND 6.03 ND | 6.03 |
| EGDSLRYYYAN | GKNNRPS | SSRDSSGFQMT | 4.25 4.81 ND | 4.53 |
| EGDALRYYYAN | GKNNRPS | HSRDSSGFQKF | 4.20 3.22 ND | 3.71 |
| EGYSLRYYYAN | GKNNRPS | SSKDSSGFQWF | ND ND ND | ND |
| EGDSLRYYYAN | GKNNRPQ | SSRDSSWFQPF | 2.75 2.34 3.12 | 2.74 |
| EGDSLRDYYAH | GKNNRPS | SSRDSSGFQQF | 5.00 3.87 ND | 4.44 |
| EGDSLRYYYAN | GKNNEFS | SSRDSSGFQGF | 2.92 3.58 3.80 | 3.43 |
| ECDSLRYYYAN | GKNNRPS | SSRDSSWFQLF | 4.61 3.64 ND | 4.13 |
| EGDSLRYYYAN | GKNNRPS | NSRDSSGIQEF | 3.06 3.05 3.35 | 3.16 |
| EGDSLRVYYAN | GKNNRSS | SSRDSSGFQHF | ND ND 4.42 | 4.42 |
| EGDSLRYMYAY | GKNNRPS | SSRDSSGFQLF | ND 3.74 ND | 3.74 |
| EGDSLRYYYAN | GKNNRPS | ISRDSSGFQAF | ND ND ND | ND |
| EGDSLRSYYAN | GKNNRPS | ISRDSSGFQAF | 1.66 1.59 1.41 | 1.56 |
| EGDSLRYYYAN | GKNNRPS | SSRDFSGMQMF | 2.83 2.35 2.23 | 2.47 |
| EGYDLRYYYAN | GKNNRPS | SSRDSSGFQHF | 4.53 4.93 4.15 | 4.54 |
| DGDSLRYYYHN | GKNNRPS | SSRDSSGFQCF | 3.28 4.16 ND | 3.72 |
| EGDSLQYYYAN | GKNNRPS | SSRDSSGFMFF | ND ND ND | ND |
| EIDSLRYYYAN | GKNNRPS | SSRDRSGFQRF | 3.84 3.50 ND | 3.67 |
| EGDSLRYYYAN | GTNNRPS | SSRDSSGFQCQ | 3.30 4.07 ND | 3.69 |
| EGDSLQYYGAN | GKNNRPS | SSRDSSGFQLF | 2.34 2.71 1.98 | 2.34 |
| EGDSLRYYYAN | GKNNRPS | SSRDSSSFQKF | 3.02 2.71 3.49 | 3.07 |
| EGDSLRYAYAN | GKNNRPS | SSRDSSGFQQF | 2.46 2.45 1.35 | 2.09 |
| EGDSLRYYYAN | GKNNRPS | SSRDSSGFQGW | 5.43 ND ND | 5.43 |
| EGDSLRYYYAN | GKNNRPS | SSRDVNGFQSF | 3.21 3.53 2.05 | 2.93 |
| EGDSLRYYYAN | GKNNRPS | SSRDHSGFRLF | 2.05 1.96 1.58 | 1.86 |
| EGDSLRYYFAN | GKGNRPS | SSRDSSGFQEF | 2.68 2.48 2.45 | 2.54 |
| PGDSLRYYYAN | GKNNRPS | SSRDSPGFQIF | 3.84 3.22 ND | 3.53 |
| EQDSLRYYYAN | GKNNRPS | SSRDSSGCQSF | 4.08 ND 3.46 | 3.77 |
| LGDSLRYYYAN | GKNNRPS | SSIDSSGFQGF | 3.52 3.78 4.37 | 3.89 |

Repeated from above, the 5 best binders with a signal in all replicates:

| CDR-L1 | CDR-L2 | CDR-L3 | log10 Kd, replicates | log10 Kd (nM), mean |
|---|---|---|---|---|
| EGDSLRYYYAN | GKNNRGS | SSRYSSGFQHF | 1.97 1.42 1.25 | 1.54 |
| EGDSLRSYYAN | GKNNRPS | ISRDSSGFQAF | 1.66 1.59 1.41 | 1.56 |
| EGDSLRYYYAN | GKNNRPS | SSRDHSGFRLF | 2.05 1.96 1.58 | 1.86 |
| EGDSLRYAYAN | GKNNRPS | SSRDSSGFQQF | 2.46 2.45 1.35 | 2.09 |
| EGDSLQYYGAN | GKNNRPS | SSRDSSGFQLF | 2.34 2.71 1.98 | 2.34 |

The measurements come from Engelhart et al. 2022 (doi:10.1038/s41597-022-01779-4) through the FLAb antibody collection.